This is an account of results in US5916925A, “Pharmaceutical composition for treatment of dementia” (Takeda Chemical Industries, Ltd., priority 1996, dated 1999).

This data set is described as follows: in vivo. Particulars: mouse.

For `COC1=C(OC)C(=O)C(CCCCCCCCCCO)=C(C)C1=O` [idebenone, 6-(10-hydroxydecyl) -2,3-dimethoxy-5-methyl-1,4-benzoquinone], the LD50 was ≥ 10000 mg/kg.
